Reference: US9540333B2, “Alkyl amide-substituted pyrimidine compounds useful in the modulation of IL-12, IL-23 and/or IFNα” (Bristol-Myers Squibb Company, priority 2012, dated 2017)
pEC50, pIC50: −log10 of the molar value.

Chains of the proteins cited; added tags and fusions are not shown. Residues count along the entry.
UniProt P29597, 575-869 limits assumed: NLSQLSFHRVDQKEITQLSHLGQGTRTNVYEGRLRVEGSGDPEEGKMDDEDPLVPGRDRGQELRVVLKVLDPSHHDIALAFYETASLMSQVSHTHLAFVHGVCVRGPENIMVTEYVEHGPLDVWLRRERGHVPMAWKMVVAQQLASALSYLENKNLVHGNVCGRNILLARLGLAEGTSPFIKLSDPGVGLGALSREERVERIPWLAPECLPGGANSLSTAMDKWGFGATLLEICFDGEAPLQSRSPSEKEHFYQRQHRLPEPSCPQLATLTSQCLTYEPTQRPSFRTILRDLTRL

Tests used:
[1] = target: His-tagged protein corresponding to amino acids 575-869 of human Tyk2 (Homo sapiens, UniProt P29597); experiment: Probe displacement assay (scintillation proximity, radiolabeled probe); conditions: read-out: Probe Displacement Data (EC50); 2.5 nM Tyk2 (575-869), 40 nM tritiated probe, 30 minutes at room temperature
Experimental: The probe displacement assay is conducted as follows: In a […], test compounds along with recombinantly expressed His-tagged protein corresponding to amino acids 575-869 of human Tyk2 (sequence shown below) at 2.5 nM, 40 nM ((R)—N-(1-(3-(8-methyl-5-(methylamino)-8H-imidazo[4,5-d]thiazolo[5,4-b]pyridin-2-yl)phenyl)ethyl)-2-([^3H]methylsulfonyl)benzamide) (preparation described below) and 80 μg/mL Copper His-Tag scintillation proximity assay beads (Perkin Elmer, Catalog #RPNQ0095) in 50 mM HEPES, pH 7.5, containing 100 μg/mL bovine serum albumin and 5% DMSO were incubated for 30 minutes at room temperature. The amount of radiolabeled probe (preparation described below) bound to Tyk2 was then quantified by scintillation counting, and the inhibition by the test compound calculated by comparison to wells either with no inhibitor (0% inhibition) or without Tyk2 (100% inhibition). The IC50 value is defined as the concentration of test compound required to inhibit radiolabeled probe binding by 50%.
Protein Sequence of recombinant Hig-tagged Tyk2 (575-869):
The preparation of radiolabeled probe, (R)—N-(1-(3-(8-methyl-5-(methylamino)-8H-imidazo[4,5-d]thiazolo[5,4-b]pyridin-2-yl)phenyl)ethyl)-2-([^3H]methylsulfonyl)benzamide, was performed as described below.

[2] = tested on: IL-23 stimulated Kit225 T cells with STAT-dependent luciferase reporter; experiment: Kit225 T cell assay, IL-23 stimulated STAT-dependent luciferase reporter; conditions: read-out: IL-23 Kit225 Reporter, LE (IC50), 20 ng/mL human recombinant IL-23, 5-6 hours
Experimental: (§1) Kit225 T cells with a stably-integrated STAT-dependent luciferase reporter were plated in RPMI (Gibco) containing 10% heat-inactivated FBS (Gibco) and 100 U/mL PenStrep (Gibco). The cells were then stimulated with either 20 ng/mL human recombinant IL-23 or 200 U/mL human recombinant IFNα (PBL InterferonSource) for 5-6 hours. Luciferase expression was measured using the STEADY-GLO® Luciferase Assay System (Promega) according to the manufacturer's instructions. Inhibition data were calculated by comparison to no inhibitor control wells for 0% inhibition and non-stimulated control wells for 100% inhibition. Dose response curves were generated to determine the concentration required to inhibit 50% of cellular response (IC50) as derived by non-linear regression analysis.

[3] = tested on: IFNα stimulated Kit225 T cells with STAT-dependent luciferase reporter; experiment: Kit225 T cell assay, IFNα stimulated STAT-dependent luciferase reporter; conditions: read-out: IFNα Kit225 Reporter, LE (IC50), 200 U/mL human recombinant IFNα, 5-6 hours
Experimental: as §1

- pEC50 [1]: 7.05
- pIC50 [2]: 5.04
- pIC50 [3]: 4.90
SMILES: CCCNc1ncc(C(=O)NC)c(Nc2ccccc2C(N)=O)n1
